# AlphaSeq binding of Ab-14 light chain variants to a spike HR2 peptide

All variants were tested on one target, the spike HR2 peptide PDVDLGDISGINAS (SARS-CoV-2).

Each scFv is VH, the linker GGGGSGGGGSGGGGS, VL, as in the parent Ab-14, and differs from it in the CDRs of the light chain only.
VH: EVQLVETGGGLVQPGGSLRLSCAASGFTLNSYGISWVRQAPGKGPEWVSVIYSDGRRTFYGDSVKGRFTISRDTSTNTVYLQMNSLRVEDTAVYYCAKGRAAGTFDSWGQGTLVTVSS
VL: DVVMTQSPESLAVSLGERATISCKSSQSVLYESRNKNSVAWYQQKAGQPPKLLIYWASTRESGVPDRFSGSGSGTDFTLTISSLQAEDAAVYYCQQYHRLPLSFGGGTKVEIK

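This is the validation round: designs drawn from the data on random variants, tested in the same kind of assay. Their group label is 14L_En_Gen (En: ensemble of fine-tuned language models; Gen: genetic algorithm). The assay is AlphaSeq: two haploid yeast populations carry antibody and antigen on their surface. The frequency of each diploid, read from paired DNA barcodes, reflects how well the two displayed proteins bind. Scores were corrected for input abundance and mapped to Kd with protein pairs of known affinity run in the same pool. Mating was done six times.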

Variants are written as CDR1, CDR2 and CDR3 of the light chain (limits as in the source). Parent: KSSQSVLYESRNKNSVA, WASTRES, QQYHRLPLS. Scale: log10 of Kd in nM, estimated from mating counts; low values are strong binders. A mean of the replicates is given; it leaves out those without a signal. A pair that was not seen in that replicate is written "n.d."; this usually means weak binding, but a binder can also be missed. In the paper, a design with two or fewer of six values counts as a poor binder. A sequence measured in both rounds can read differently, since the two assays cover different ranges. Empty control strains, which show no peptide, gave a signal in 4% of pairings with all light chain designs; the median was 2.64 and 95% of these signals were weaker than 1.59. No background was subtracted. For each scFv, signals with the empty controls are counted beside the result, with their mean in brackets.

CDR-L1,CDR-L2,CDR-L3,"replicates, log10 nM","log10 Kd (nM), mean",signal with controls
HMSMLTLMGMRQRNSVA,QMTMREN,QQYDRLPLT,1.44 1.48 1.57 1.74 1.65 1.31,1.53,1 of 18 (1.80)
KLTMITGLEKVQGNNVA,EMETREK,QQYNRLPLA,0.83 0.64 0.27 0.66 0.15 0.59,0.53,1 of 18 (2.35)
MVQQLYNMGQFAINSVA,QASQRNA,QQYDRLPLI,2.07 n.d. 1.91 n.d. n.d. n.d.,1.99,0 of 18
MLSQMWALGSKVSNSVA,QASMRFN,QQYHRLPLI,n.d. 4.42 2.87 1.74 2.42 2.09,2.71,2 of 18 (2.15)
KLVQFMNRGTHHTSNIA,DAQNRID,QQYYRLPLA,0.02 0.57 0.47 1.28 0.39 0.97,0.62,1 of 18 (2.90)
KISQMVKVGSTLSNSIA,EEVTRAK,QQYHRLPLA,1.31 2.09 0.78 0.78 0.59 0.96,1.09,0 of 18
KLSMVTGHMSVSKNNVA,EMETREN,QQYDRLPLS,0.69 0.56 0.52 0.49 0.50 0.61,0.56,4 of 18 (3.28)
KLSMITGHMSMSRENVA,EMETREN,QQYDRLPLS,0.73 0.56 0.61 0.68 0.42 0.73,0.62,1 of 18 (2.15)
NLSGMTAHETVKEKNIA,ERSTREM,QQYNRLPLS,0.64 0.43 0.40 0.14 0.17 0.40,0.36,0 of 18
IVSQLMLWGLSAKNSIA,EAVTRLN,QQYDRLPLI,n.d. n.d. n.d. n.d. n.d. n.d.,n.d.,0 of 18
TISELYNQSLGMRNNVA,NNQTRED,QQYDRLPLS,n.d. n.d. n.d. n.d. n.d. n.d.,n.d.,0 of 18
TISELYNQALGTRNNVA,NNQTRED,QQYDRLPLS,2.06 2.49 n.d. 3.67 3.12 n.d.,2.83,1 of 18 (2.71)
MINQLYNMGSFAINSVA,QASERCN,QQYDRLPLM,0.91 0.87 1.37 1.19 1.34 1.45,1.19,1 of 18 (1.30)
KITMTMRFEQKNTNNIA,EVSTRSK,QQYVRLPLA,n.d. 1.61 1.31 2.73 1.21 2.37,1.85,0 of 18
MMSQVQGQGTRHRNNVA,QTSTREP,QQYDHLPLI,1.30 1.13 0.83 0.99 0.90 1.23,1.06,0 of 18
MIYGAARELGLAANSIA,DNVTRYN,QQYNRLPLS,1.36 1.85 n.d. 2.46 n.d. 2.56,2.06,2 of 18 (2.52)
IVSQLMLWGMHVKNSIA,EAQTRLN,QQYERLPLF,n.d. n.d. n.d. n.d. n.d. n.d.,n.d.,0 of 18
MLSQMTGLGMKASNSVA,QASMRFN,QQYHRLPLI,1.35 1.19 1.16 1.58 1.72 1.96,1.49,0 of 18
MISQILNMGQFAINSVA,QASLRNE,QQYDRLPLM,1.70 1.15 1.47 2.11 n.d. 1.42,1.57,1 of 18 (3.43)
KVSEFMRGLMKQKNSIA,DNVTRNN,QQYDRLPLS,3.29 2.13 1.29 1.18 2.78 n.d.,2.13,2 of 18 (2.11)
TIGGTLMYGSRNRSNVA,EVSERLN,QQYDRLPLL,3.26 1.40 1.74 1.23 1.25 1.50,1.73,0 of 18
MISQLYNFGTFAINSVA,QAETRCN,QQYDRLPLE,n.d. n.d. n.d. n.d. 1.85 n.d.,1.85,0 of 18
MLSEFMHMLGAKKNSIA,DLVVRAN,QQYHRLPLI,1.31 2.25 n.d. 2.46 2.31 1.98,2.06,2 of 18 (2.94)
MISQVLNTLTRNGNNVA,DLTEREK,QQYFRLPLS,1.08 1.39 1.94 0.57 1.00 0.87,1.14,0 of 18
KVSEFMKGLMMMKDSIA,DNNTRGS,QQYDRLPLS,n.d. 1.75 2.07 n.d. 1.96 n.d.,1.93,0 of 18
KLSSVTGHMSMAKNNVA,EMVTREK,QQYNRLPLA,-0.05 0.40 0.10 0.13 0.11 0.16,0.14,1 of 18 (4.24)
KLSGIMRLESKVSNSIA,EMTTRGA,QQYDRLPLS,0.90 0.72 0.49 0.44 0.71 0.62,0.65,1 of 18 (1.99)
HITYGMQVMGRHSKSIA,QAEERAK,QQYDRLPLA,1.03 0.83 1.04 0.48 0.97 1.02,0.90,1 of 18 (3.55)
MVTQMAMTGMKNKRSVA,NAEMREN,QQYHRLPLI,0.99 0.40 0.00 0.31 0.17 0.52,0.40,1 of 18 (1.65)
MLSSVLHMLGVKKNSIA,DLVLRAN,QQYARLPLM,n.d. n.d. n.d. n.d. n.d. 1.65,1.65,0 of 18
SISMLLNFELKIGNNVA,QMETRVN,QQYDRLPLS,1.51 1.92 2.09 1.72 2.69 n.d.,1.99,0 of 18
KLSMTHEMELKNRNSVA,ELVTRMS,QQYNRLPLS,0.77 0.58 0.89 1.23 0.66 0.88,0.83,0 of 18

Excerpt, the first 3 entries:

CDR-L1,CDR-L2,CDR-L3,"replicates, log10 nM","log10 Kd (nM), mean",signal with controls
HMSMLTLMGMRQRNSVA,QMTMREN,QQYDRLPLT,1.44 1.48 1.57 1.74 1.65 1.31,1.53,1 of 18 (1.80)
KLTMITGLEKVQGNNVA,EMETREK,QQYNRLPLA,0.83 0.64 0.27 0.66 0.15 0.59,0.53,1 of 18 (2.35)
MVQQLYNMGQFAINSVA,QASQRNA,QQYDRLPLI,2.07 n.d. 1.91 n.d. n.d. n.d.,1.99,0 of 18

From the AlphaSeq antibody data of Li et al. 2023 (doi:10.1038/s41467-023-39022-2), copy in the FLAb collection.